The values below are quoted from earlier work in patent US9700485B2, “Delamination resistant pharmaceutical glass containers containing active pharmaceutical ingredients” (Corning Incorporated, priority 2013, dated 2017).

For this series, the system named is DiFi cells. The settings on record: cited from earlier work.

“IMC-C225: anti-EGFR antibody used for comparison”: the ADCC activity entry was “mediate cell death via activation of the Antibody Dependent Cellular Cytotoxicity”.
